Test results: US9771352B2, “Hydroxyalkyl-substituted phenyltriazole derivatives and uses thereof” (BAYER PHARMA AKTIENGESELLSCHAFT, priority 2014, dated 2017)

Test system: conscious rats
Assay: Diuresis investigations in conscious rats kept in metabolism cages
Details: comparative examples of WO 2011/104322 (Table 2B)

Structure (SMILES): NC(=O)Cn1nc(Cn2nc(-c3ccc(Cl)cc3)n(C[C@H](O)C(F)(F)F)c2=O)nc1-c1ccccc1Cl
- Urinary volume (dosage p.o. 0.3 mg/kg): 87 % vs. control = 100%
- Urinary volume (dosage p.o. 3.0 mg/kg): 121 % vs. control = 100%

Structure (SMILES): COC(=O)Cn1nc(Cn2nc(-c3ccc(Cl)cc3)n(C[C@H](O)C(F)(F)F)c2=O)nc1-c1ccccc1Cl
- Urinary volume (dosage p.o. 0.3 mg/kg): 128 % vs. control = 100%
- Urinary volume (dosage p.o. 3.0 mg/kg): 85 % vs. control = 100%
